Patent US20090143285A1, “TARGET PROTEIN AND TARGET GENE FOR DRUG DISCOVERY AND SCREENING METHOD” (REVERSE PROTEOMICS RESEARCH INSTITUTE CO., LTD., priority 2005, published 2009)

Tests used:
[1] = target: T1, FLJ41991-derived protein (Homo sapiens, UniProt P57764, E293G); assay: SEC/MS interaction analysis, FLJ41991-derived protein (GSDMDC1); assay type: binding; settings: compound 12.5 μM, protein 25 μM
T1 construct: His-tag (N); made in house; host or cells: Escherichia coli BL21star(DE3)pLysS (pDEST17)
T1 sequence (P57764 265-484 E293G): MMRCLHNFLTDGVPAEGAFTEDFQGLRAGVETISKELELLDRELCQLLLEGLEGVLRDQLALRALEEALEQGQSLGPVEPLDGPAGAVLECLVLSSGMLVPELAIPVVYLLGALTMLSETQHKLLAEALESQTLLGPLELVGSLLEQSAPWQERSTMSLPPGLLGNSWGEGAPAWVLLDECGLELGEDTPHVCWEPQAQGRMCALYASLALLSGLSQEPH
Source text: To analyze the interactions between commonly used drugs and proteins expressed from human full-length cDNA clones while keeping both the proteins and the compounds in non-modified, non-immobilized state, size exclusion chromatography (SEC) and mass analysis were used in combination. The specific procedures are shown below.
The compound-protein mixture prepared in step 1 was subjected to chromatography using an SEC column, the compound and the protein were separated by SEC, and the compound that interacted with the bound compound or protein contained in the protein fraction was analyzed using a mass analyzer.
Protein concentrations were measured using BCA Protein Assay (PIERCE), in consideration of the purity calculated by SDS-PAGE.
Mass analysis was performed using LCQ DECA XP (Thermoelectron) or Q-TOF micro (Micromass), equipped with an ESI probe. […]
In the 384-well spin column method, Unifilter 100 (Whatman), packed with 10 μL (dry volume) of Bio-Gel P6 (BIO-RAD) and swollen with milliQ water, was used as the SEC column. […] 2-μL of mass analysis samples were injected using an autosampler at 2-minute intervals; the mass spectral intensity of the compound was measured to retrieve the spectral intensity of the pharmaceutical compound contained in the SEC spin column filtrate (protein fraction eluted from SEC).

[2] = target: FLJ37909-derived protein (human) (UniProt Q9BTT0); assay: SPR (BIACORE3000), His-tagged protein immobilised on the chip, compound injected

spectrum intensity of the compound in the SEC spin column filtrate [1] | Kd [2] [µM] | Compound
331748 | – | O=C(c1ccc(OCCN2CCCCC2)cc1)c1c(-c2ccc(O)cc2)sc2cc(O)ccc12 [raloxifene]
– | 1500 | cyclosporin A (peptide)
